Molecules are shown by their SMILES.

The series is described as follows: Physical stability in cartridges under static conditions, visual inspection. The following applies: acidic pH, no co-polyamino acid.

On to `CSCC[C@H](NC(=O)[C@H](CC(C)C)NC(=O)[C@H](Cc1c[nH]c2ccccc12)NC(=O)[C@H](CCC(N)=O)NC(=O)[C@@H](NC(=O)[C@H](Cc1ccccc1)NC(=O)[C@H](CC(=O)O)NC(=O)[C@H](CCC(N)=O)NC(=O)[C@H](C)NC(=O)[C@H](CCCN=C(N)N)NC(=O)[C@H](CCCN=C(N)N)NC(=O)[C@H](CO)NC(=O)[C@H](CC(=O)O)NC(=O)[C@H](CC(C)C)NC(=O)[C@H](Cc1ccc(O)cc1)NC(=O)[C@H](CCCCN)NC(=O)[C@H](CO)NC(=O)[C@H](Cc1ccc(O)cc1)NC(=O)[C@H](CC(=O)O)NC(=O)[C@H](CO)NC(=O)[C@@H](NC(=O)[C@H](Cc1ccccc1)NC(=O)[C@@H](NC(=O)CNC(=O)[C@H](CCC(N)=O)NC(=O)[C@H](CO)NC(=O)[C@@H](N)Cc1c[nH]cn1)[C@@H](C)O)[C@@H](C)O)C(C)C)C(=O)N[C@@H](CC(N)=O)C(=O)N[C@H](C(=O)O)[C@@H](C)O` [glucagon], for which the “stability of the glucagon solution at 37° C.” value is, setting by setting: (1 mg/mL) 2 days; (2 mg/mL) 2 days.

(Values after patent US20200306346A1 (ADOCIA, priority 2017, published 2020).)
